# Measurements published in patent US20250205350A1, “Antibody-Drug Conjugates and Uses Thereof” (Vivasor, Inc., priority 2022, published 2025).
# Tested on: NCI-N87 xenograft
# Experiment: In vivo efficacy in NCI-N87 xenograft in Nu/Nu nude mice
# Procedure: Her2 antibody Herceptin (Trastuzumab) was purchased from Myonex LLC (Horsham, PA, USA).
# Female Nu/Nu mice, 6 weeks of age, were purchased from Charles River Laboratories (Wilmington, MA). Upon receipt, groups of 5 mice were housed per cages in a controlled environment vivarium and allowed to acclimate for 72 hours prior to experimentation. Rodent chow and water were provided ad libitum. Animal health status was determined during the acclimation period. Each cage was identified by group number and study number, and mice were individually identified using ear tags. The study was conducted under approved IACUC protocols and were performed in the vivarium at Sorrento Therapeutics Inc (4955 Directors Places, San Diego, CA), which was managed by Explora BioLabs (San Diego, CA).
# Animals were observed twice weekly for general clinical conditions including viability, mortality, mobility, posture, body weight (BW) and other signs of distress. If animals became moribund or lost >15% of their BW due to toxicity, or the combination of toxicity and disease, they were euthanized and recorded.
# Human gastric cancer cell line NCl-N87 cells were cultured and expanded in RPMI 1640 medium (catalog #10^−041-CV, Corning, Corning, NY) supplemented with 10% FBS (catalog #FB-02, Omega Scientific, Tarzana, CA) at 37° C. in a 5% CO2 humidified environment for a period of 2-3 weeks before harvesting for implantation. Cell viability determined by Trypan blue dye exclusion assay on a Countess II Automated Cell Counter (catalog #AMQAX1000, Invitrogen, Carlsbad, CA) and was >90% before implantation. […]
# Tumor volume measurement was started 11 days after tumor cell inoculation and performed twice a week after initial dosing. The longest longitudinal diameter as length and the widest transverse diameter as width were measured by using a digital caliper (catalog #62379-531, VWR, Radnor, PA). Tumor volume (TV) were then calculated by the formula: TV=[length×(width)^2]/2 and were analyzed in Excel (Microsoft Office, Redmond, WA.). […]
substance,measurement,setting,value
Trastuzumab [Her2 Ab (Trastuzumab)],TGI % (Day 28),"3 mg/kg, i.v., once, Day 28",46.5%
same,TR % (Day 28),"3 mg/kg, i.v., once, Day 28",0.0%
same,growth of NCl-N87 tumors compared to vehicle PBS (in words),after 1-3 weeks of treatment,significantly and quickly inhibited the growth
